PubChem BioAssay (NCI)
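Cells were grown in 96-well plates and exposed to each compound for 48 hours at five concentrations; endpoints were interpolated linearly between bracketing concentrations, or set to the highest concentration if not reached. GI50 = concentration required for 50% inhibition of growth. TGI: total growth inhibition.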

How the values were obtained:
Assay in all cases: NCI tumour cell line growth inhibition, 48 h
M14 melanoma = tested on: M14 melanoma
OVCAR-3 ovarian = tested on: OVCAR-3 ovarian
RPMI-8226 leukemia = tested on: RPMI-8226 leukemia
MCF7 breast = tested on: MCF7 breast
HCT-15 colon = tested on: HCT-15 colon
SW-620 colon = tested on: SW-620 colon
HOP-62 NSCLC = tested on: HOP-62 NSCLC
MALME-3M melanoma = tested on: MALME-3M melanoma
NCI-H226 lung = tested on: NCI-H226 lung
NCI-H460 lung = tested on: NCI-H460 lung
UO-31 renal = tested on: UO-31 renal
SNB-19 CNS = tested on: SNB-19 CNS
CAKI-1 renal = tested on: CAKI-1 renal
HCC-2998 colon = tested on: HCC-2998 colon
RXF 393 renal = tested on: RXF 393 renal
MDA-MB-231 breast = tested on: MDA-MB-231 breast
NCI-H322M lung = tested on: NCI-H322M lung
SF-539 CNS = tested on: SF-539 CNS
U251 CNS = tested on: U251 CNS
MOLT-4 leukemia = tested on: MOLT-4 leukemia
NCI-H522 lung = tested on: NCI-H522 lung
ACHN renal = tested on: ACHN renal
K-562 leukemia = tested on: K-562 leukemia
MDA-N = tested on: MDA-N
OVCAR-8 ovarian = tested on: OVCAR-8 ovarian
OVCAR-4 ovarian = tested on: OVCAR-4 ovarian
HOP-92 NSCLC = tested on: HOP-92 NSCLC
HCT-116 colon = tested on: HCT-116 colon
COLO 205 colon = tested on: COLO 205 colon
HS 578T breast = tested on: HS 578T breast
HT29 colon = tested on: HT29 colon
PC-3 prostate = tested on: PC-3 prostate
A549 NSCLC = tested on: A549 NSCLC
T-47D breast = tested on: T-47D breast
OVCAR-5 ovarian = tested on: OVCAR-5 ovarian
UACC-62 melanoma = tested on: UACC-62 melanoma
KM12 colon = tested on: KM12 colon
UACC-257 melanoma = tested on: UACC-257 melanoma
NCI-H23 lung = tested on: NCI-H23 lung
BT-549 breast = tested on: BT-549 breast
TK-10 renal = tested on: TK-10 renal
IGROV1 ovarian = tested on: IGROV1 ovarian
SF-268 CNS = tested on: SF-268 CNS
LOX IMVI melanoma = tested on: LOX IMVI melanoma
NCI/ADR-RES ovarian = tested on: NCI/ADR-RES ovarian
SF-295 CNS = tested on: SF-295 CNS
786-0 renal = tested on: 786-0 renal
SK-MEL-5 melanoma = tested on: SK-MEL-5 melanoma
SK-OV-3 ovarian = tested on: SK-OV-3 ovarian
SK-MEL-2 melanoma = tested on: SK-MEL-2 melanoma
CCRF-CEM leukemia = tested on: CCRF-CEM leukemia
A498 renal = tested on: A498 renal
SN12C renal = tested on: SN12C renal
SR leukemia = tested on: SR leukemia
MDA-MB-435 = tested on: MDA-MB-435
EKVX NSCLC = tested on: EKVX NSCLC

## Cn1c(N=[N+]=[N-])c([N+](=O)[O-])c(=O)n(C)c1=O
M14 melanoma
  GI50: 59.9 µM
  TGI: > 100 µM
OVCAR-3 ovarian
  GI50: > 100 µM
  TGI: > 100 µM
RPMI-8226 leukemia
  GI50: 99.9 µM
  TGI: > 100 µM
MCF7 breast
  GI50: > 100 µM
  TGI: > 100 µM
HCT-15 colon
  GI50: > 100 µM
  TGI: > 100 µM
SW-620 colon
  GI50: > 100 µM
  TGI: > 100 µM
HOP-62 NSCLC
  GI50: > 100 µM
  TGI: > 100 µM
MALME-3M melanoma
  GI50: > 100 µM
  TGI: > 100 µM
NCI-H226 lung
  GI50: > 100 µM
  TGI: > 100 µM
NCI-H460 lung
  GI50: > 100 µM
  TGI: > 100 µM
UO-31 renal
  GI50: > 100 µM
  TGI: > 100 µM
SNB-19 CNS
  GI50: > 100 µM
  TGI: > 100 µM
CAKI-1 renal
  GI50: > 100 µM
  TGI: > 100 µM
HCC-2998 colon
  GI50: > 100 µM
  TGI: > 100 µM
RXF 393 renal
  GI50: > 100 µM
  TGI: > 100 µM
MDA-MB-231 breast
  GI50: > 100 µM
  TGI: > 100 µM
NCI-H322M lung
  GI50: > 100 µM
  TGI: > 100 µM
SF-539 CNS
  GI50: > 100 µM
  TGI: > 100 µM
U251 CNS
  GI50: > 100 µM
  TGI: > 100 µM
MOLT-4 leukemia
  GI50: 64.6 µM
  TGI: > 100 µM
NCI-H522 lung
  GI50: > 100 µM
  TGI: > 100 µM
ACHN renal
  GI50: > 100 µM
  TGI: > 100 µM
K-562 leukemia
  GI50: > 100 µM
  TGI: > 100 µM
MDA-N
  GI50: > 100 µM
  TGI: > 100 µM
OVCAR-8 ovarian
  GI50: > 100 µM
  TGI: > 100 µM
OVCAR-4 ovarian
  GI50: > 100 µM
  TGI: > 100 µM
HOP-92 NSCLC
  GI50: > 100 µM
  TGI: > 100 µM
HCT-116 colon
  GI50: > 100 µM
  TGI: > 100 µM
COLO 205 colon
  GI50: > 100 µM
  TGI: > 100 µM
HS 578T breast
  GI50: > 100 µM
  TGI: > 100 µM
HT29 colon
  GI50: > 100 µM
  TGI: > 100 µM
PC-3 prostate
  GI50: > 100 µM
  TGI: > 100 µM
A549 NSCLC
  GI50: > 100 µM
  TGI: > 100 µM
T-47D breast
  GI50: > 100 µM
  TGI: > 100 µM
OVCAR-5 ovarian
  GI50: 71.3 µM
  TGI: > 100 µM
UACC-62 melanoma
  GI50: > 100 µM
  TGI: > 100 µM
KM12 colon
  GI50: > 100 µM
  TGI: > 100 µM
UACC-257 melanoma
  GI50: > 100 µM
  TGI: > 100 µM
NCI-H23 lung
  GI50: > 100 µM
  TGI: > 100 µM
BT-549 breast
  GI50: > 100 µM
  TGI: > 100 µM
TK-10 renal
  GI50: > 100 µM
  TGI: > 100 µM
IGROV1 ovarian
  GI50: > 100 µM
  TGI: > 100 µM
SF-268 CNS
  GI50: > 100 µM
  TGI: > 100 µM
LOX IMVI melanoma
  GI50: > 100 µM
  TGI: > 100 µM
NCI/ADR-RES ovarian
  GI50: > 100 µM
  TGI: > 100 µM
SF-295 CNS
  GI50: > 100 µM
  TGI: > 100 µM
786-0 renal
  GI50: > 100 µM
  TGI: > 100 µM
SK-MEL-5 melanoma
  GI50: > 100 µM
  TGI: > 100 µM
SK-OV-3 ovarian
  GI50: > 100 µM
  TGI: > 100 µM
SK-MEL-2 melanoma
  GI50: > 100 µM
  TGI: > 100 µM
CCRF-CEM leukemia
  GI50: 51.9 µM
  TGI: > 100 µM
A498 renal
  GI50: > 100 µM
  TGI: > 100 µM
SN12C renal
  GI50: > 100 µM
  TGI: > 100 µM
SR leukemia
  GI50: > 100 µM
  TGI: > 100 µM
MDA-MB-435
  GI50: > 100 µM
  TGI: > 100 µM
EKVX NSCLC
  GI50: > 100 µM
  TGI: > 100 µM
